Experimental data published in patent US12268704B2, “Hippo regulation of cardiac vascularity, fibrosis, and inflammation” (Baylor College of Medicine, priority 2018, dated 2025).
“Also recorded” adds a separate entry of the source.

Sequences of proteins named here, by UniProt entry; tags and fusion partners are left off. A change or cut given only in a name is not applied to a line headed by its entry.
UniProt P28843: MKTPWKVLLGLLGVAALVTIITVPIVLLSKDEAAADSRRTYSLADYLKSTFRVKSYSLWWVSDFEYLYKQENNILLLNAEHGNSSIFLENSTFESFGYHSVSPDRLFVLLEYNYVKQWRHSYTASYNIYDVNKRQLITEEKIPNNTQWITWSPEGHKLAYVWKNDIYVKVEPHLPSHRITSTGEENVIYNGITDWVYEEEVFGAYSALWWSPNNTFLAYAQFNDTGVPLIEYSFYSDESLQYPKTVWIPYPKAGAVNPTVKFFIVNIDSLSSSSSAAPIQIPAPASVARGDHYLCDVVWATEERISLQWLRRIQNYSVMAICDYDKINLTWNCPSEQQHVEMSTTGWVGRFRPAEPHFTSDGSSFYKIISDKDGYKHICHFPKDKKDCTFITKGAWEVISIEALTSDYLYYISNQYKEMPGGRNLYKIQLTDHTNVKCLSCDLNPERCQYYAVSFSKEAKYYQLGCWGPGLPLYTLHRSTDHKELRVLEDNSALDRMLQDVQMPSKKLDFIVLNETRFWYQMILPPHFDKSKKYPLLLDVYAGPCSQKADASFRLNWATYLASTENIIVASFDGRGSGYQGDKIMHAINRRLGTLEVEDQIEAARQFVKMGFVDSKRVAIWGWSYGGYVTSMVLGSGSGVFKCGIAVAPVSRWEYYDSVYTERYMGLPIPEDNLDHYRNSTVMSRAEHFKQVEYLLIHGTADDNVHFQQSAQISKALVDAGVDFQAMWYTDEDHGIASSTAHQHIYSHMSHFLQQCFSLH

Target: T1, Dpp4 (Mus musculus, UniProt P28843)
T1 construct: 0.01 mg/g body weight Sitagliptin was administrated to plugged female by gavage at E11.5, E12.5 and E13.5; from tissue; host or cells: Mouse embryos in utero (Wt1CreERT2; Lats1/2 f/f and controls); hearts examined at E14.5
Test: Sitagliptin treatment of Lats1/2 CKO embryos; coronary vessel pattern by Pecam-1 staining and AngioTool quantification
Format: in vivo

[1] = Lats1/2 CKO E14.5 hearts treated with Sitagliptin versus controls, Pecam-1 IF
[2] = Lats1/2 CKO E14.5 hearts treated with Sitagliptin, Pecam-1

Structure (SMILES): N[C@@H](CC(=O)N1CCn2c(nnc2C(F)(F)F)C1)Cc1cc(F)c(F)cc1F [Sitagliptin, Sitagliptin phosphate]
- mean lacunarity (Mean E lacunarity) [1]: suppressed; also recorded: no difference
- vessel percentage area [1]: suppressed; also recorded: no difference
- blood islands, ventral side of heart [2]: some blood islands still appeared
- dorsal side vessel coverage phenotype [2]: suppressed; also recorded: comparable vessel coverage
